Binding of CDR-mutated scFvs to a peptide of the spike HR2 region

Data: MIT Lincoln Laboratory AlphaSeq set, Li et al. 2023, doi:10.1038/s41467-023-39022-2, as distributed in FLAb.

Binding partner: SARS-CoV-2 spike HR2 peptide, sequence PDVDLGDISGINAS.

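Phage display of a naive human antibody library on the peptide gave the parent. These sequences belong to a second round, designed from the earlier measurements on random variants of the parent. Their group label is 14H_En_Gen (En: ensemble of fine-tuned language models; Gen: genetic algorithm). In AlphaSeq, yeast of one mating type display the scFv and yeast of the other type display the target. After mating in shaken culture at 30 °C for 16 h, diploids were selected and their barcode pairs sequenced. A regression on co-assayed BCL2-family reference pairs converts the normalised counts of each replicate to an apparent Kd. Each pool was mated in six replicate cultures.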

Parent scFv Ab-14: VH joined to VL by the linker GGGGSGGGGSGGGGS. Changes lie in the heavy chain CDRs alone.
VH: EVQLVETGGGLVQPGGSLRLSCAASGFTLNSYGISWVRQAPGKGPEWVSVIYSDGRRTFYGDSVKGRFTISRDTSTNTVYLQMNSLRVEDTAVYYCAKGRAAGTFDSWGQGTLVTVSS
VL: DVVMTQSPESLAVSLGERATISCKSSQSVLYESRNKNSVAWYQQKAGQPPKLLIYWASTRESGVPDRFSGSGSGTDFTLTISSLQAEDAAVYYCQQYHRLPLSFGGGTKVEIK

Variants are written as CDR1, CDR2 and CDR3 of the heavy chain (limits as in the source). Parent: GFTLNSYGIS, VIYSDGRRTFYGDSVK, GRAAGTFDS. Affinities are written as log10 Kd with Kd in nM; a lower number is a better binder. Replicates are averaged; those with no signal do not enter the mean. "ND" means that the variant was in the library but no mating with the target was seen in that replicate; the authors take this as a sign of poor binding, and no number exists.

For GFDLDEYGIS | VIYADGMRTAYADSVK | GGNAGTFDQ, the assay gave 1.81, -0.19, 0.11, 0.52, 0.05, 0.15 (mean 0.41; controls 0 of 18).
For GFDLNEYGIS | VIYADGQRTAYADNVK | GQVAGTFDV, the assay gave -0.27, -0.68, -0.68, -0.15, 0.81, 0.35 (mean -0.10; controls 0 of 18).
For GFNLDEYGIS | VIYADGMRTAYADSVK | GNQAGTFDL, the assay gave -0.72, -0.55, -0.35, -0.08, -0.40, -0.50 (mean -0.43; controls 0 of 18).
For GFDLNEYGIS | VIYADGMRTAYANSVK | GETAGTFDQ, the assay gave 0.09, 0.13, -0.22, -0.40, 0.35, 0.47 (mean 0.07; controls 0 of 18).
For GFDLNEYGIS | VIYADGQRTAYADSVK | GANAGTFDV, the assay gave -0.76, -0.52, -0.52, -0.94, -0.76, -0.79 (mean -0.72; controls 0 of 18).
For GFDLNEYGIS | VIYADGMRTAYADSVK | GNNAGTFVV, the assay gave 0.45, 0.03, 0.03, -0.17, 1.03, 0.82 (mean 0.36; controls 0 of 18).
For GFDLNEYGIS | VIYADGMRTAYADSVK | GENAGTFVI, the assay gave ND, ND, 2.16, ND, ND, ND (controls 1 of 18).
For GFDLNEYGIS | VIYADGSRTAYIDSVK | GNVAGTFDV, the assay gave -0.56, -0.75, -0.59, -0.70, -0.70, -0.53 (mean -0.64; controls 0 of 18).
For GFDLDEYGIS | VIYADGQRTAYADSVK | GNNAGTFDV, the assay gave -0.21, -0.24, -0.51, -0.31, -0.36, -0.25 (mean -0.31; controls 0 of 18).
For GFDLDEYGIS | VIYADGQRTAYVDSVK | GNQAGTFDV, the assay gave 0.04, -0.05, -0.21, 0.02, -0.20, -0.19 (mean -0.10; controls 1 of 18).
For GFDLNEYGIS | VIYADGVRKAYADSVK | GNNAGTFDL, the assay gave -0.59, -0.37, -0.30, -0.49, -0.57, -0.50 (mean -0.47; controls 0 of 18).
For GFDLNEYGIS | VIYADGMRTAYIDSVK | GENAGTFDM, the assay gave 0.32, 0.02, 0.01, -0.03, -0.48, 0.01 (mean -0.02; controls 1 of 18).
For GFDLNEYGIS | VIYADGMRTAYSDKVK | GTNAGTFDV, the assay gave -0.84, -0.54, -1.11, -1.22, -0.66, -0.32 (mean -0.78; controls 0 of 18).
For GFDLNEYGIS | VIYADGVRTAYADSVK | GTVAGTFDI, the assay gave -0.40, -0.86, -1.07, -1.11, -0.92, -0.90 (mean -0.88; controls 0 of 18).
For GFDLDEYGIS | VIYADGKRTVYADSVK | GQNAGTFDV, the assay gave -0.40, -0.72, -0.40, -0.70, -0.69, -0.64 (mean -0.59; controls 0 of 18).
For GFDLNEYGIS | VIYADGQRTAYADDVK | GNQAGTFDV, the assay gave 0.62, 0.30, 0.50, 0.16, 0.50, 0.80 (mean 0.48; controls 0 of 18).
For GFDLNEYGIS | VIYADGVRTAYADDVK | GENAGTFDL, the assay gave 0.51, 0.70, -0.08, -0.06, -0.29, 0.86 (mean 0.28; controls 0 of 18).
For GFDLNEYGIS | VIYADGMRSYYADSVK | GENAGTFDL, the assay gave -0.01, -0.03, 0.15, -0.05, -0.03, 0.04 (mean 0.01; controls 0 of 18).
For GFDLNEYGIS | VIYADGRRTAYANSVK | GETAGTFDV, the assay gave -0.29, -0.86, -0.12, -1.53, -0.95, -0.60 (mean -0.73; controls 0 of 18).
For GFDLDEYGIS | VIYADGKRTAYTDSVK | GQNAGTFDV, the assay gave 0.05, -0.33, -0.56, -0.11, -0.59, -0.36 (mean -0.31; controls 0 of 18).
For GFDLNEYGIS | VIYADGVRTYYADDVK | GENAGTFDI, the assay gave -0.08, -0.23, -0.81, -0.83, -0.79, -0.49 (mean -0.54; controls 1 of 18).
For GFDLNEYGIS | VIYADGMRTAYADSVK | GNVAGTFVM, the assay gave 0.06, -0.01, 0.11, -0.09, -0.18, 0.04 (mean -0.01; controls 0 of 18).
For GFDLDEYGIS | VIYADGKRTAYAESVK | GNVAGTFDV, the assay gave -0.31, -0.37, -0.54, -0.58, -0.66, -0.69 (mean -0.52; controls 0 of 18).
For GFDLNEYGIS | VIYADGVRKSYADSVK | GNVAGTFDV, the assay gave -0.44, -0.43, -0.27, -0.52, -0.74, -0.26 (mean -0.44; controls 1 of 18).
For GFDLNEYGIS | VIYADGQRTAYADSVK | GTVAGTFDV, the assay gave 0.25, 0.40, -0.08, 0.12, 0.10, 0.58 (mean 0.23; controls 0 of 18).
For GFDLNEYGIS | VIYADGVRTAYIDSVK | GNNAGTFDI, the assay gave -0.41, -0.27, -0.30, -0.45, -0.55, -0.43 (mean -0.40; controls 1 of 18).
For GFDLDEYGIS | VIYADGMRTAYIDSVK | GQNAGTFDV, the assay gave -0.55, 0.11, -0.61, -0.26, -0.43, -0.27 (mean -0.34; controls 1 of 18).
For GFDLNEYGIS | VIYADGSRTAYADSVK | GNEAGTFDI, the assay gave -0.43, 0.08, -0.41, -0.34, 0.05, -0.08 (mean -0.19; controls 0 of 18).
For GFDLNEYGIS | VIYADGMRTAYANSVK | GEVAGTFDM, the assay gave -0.55, -0.58, -0.36, -1.56, -1.17, -1.25 (mean -0.91; controls 0 of 18).
For GFDLNEYGIS | VIYADGSRTAYADNVK | GEVAGTFDI, the assay gave 0.14, -0.06, 0.01, -0.10, 0.03, 0.24 (mean 0.04; controls 1 of 18).
For GFDLDEYGIS | VIYADGKRTAYADDVK | GNVAGTFDQ, the assay gave -0.66, -0.82, -0.76, -0.59, -1.00, -0.69 (mean -0.75; controls 0 of 18).
For GFDLDEYGIS | VIYADGMRTAYQDSVK | GNQAGTFDV, the assay gave -0.55, -0.70, -0.59, -0.74, -0.61, -0.65 (mean -0.64; controls 0 of 18).
For GFDLNEYGIS | VIYADGVRTAYTDDVK | GENAGTFDV, the assay gave -0.36, -0.40, -0.67, -0.50, -0.72, -0.28 (mean -0.49; controls 0 of 18).
For GFDLNEYGIS | VIYADGMRTSYADSVK | GNVAGTFDQ, the assay gave -0.41, -0.37, -0.69, -0.95, -0.85, -0.16 (mean -0.57; controls 0 of 18).
For GFDLNEYGIS | VIYADGMRTVYADDVK | GNVAGTFDV, the assay gave -0.51, -1.11, 0.00, -1.06, -0.93, -0.88 (mean -0.75; controls 0 of 18).
For GFDLDEYGIS | VIYADGMRTAYADDVK | GQVAGTFDL, the assay gave -0.55, -0.20, -0.24, -0.17, -0.55, -0.54 (mean -0.38; controls 0 of 18).
For GFDLNEYGIS | VIYADGMRTAYVDDVK | GNQAGTFDI, the assay gave -0.27, -0.60, -0.34, -0.25, -0.58, 0.08 (mean -0.33; controls 1 of 18).
For GFDLDEYGIS | VIYADGQRTYYADSVK | GNVAGTFDV, the assay gave -0.59, -0.58, -0.32, -1.26, -1.47, -0.53 (mean -0.79; controls 1 of 18).
For GFDLDEYGIS | VIYADGKRTAYAESVK | GENAGTFDV, the assay gave -0.33, 0.11, -0.68, -0.17, -0.63, -0.46 (mean -0.36; controls 0 of 18).
For GFDLNEYGIS | VIYADGMRTSYADSVK | GNVAGTFDL, the assay gave -0.60, -0.60, -0.40, -0.80, -0.77, -0.42 (mean -0.60; controls 0 of 18).
For GFDLDEYGIS | VIYADGMRTAYADSVK | GNTAGTFDM, the assay gave 0.31, -0.42, -0.08, -0.17, -0.29, -0.29 (mean -0.16; controls 0 of 18).
For GFDLDEYGIS | VIYADGKRTAYADSVK | GQVAGTFDT, the assay gave 0.08, -0.45, -0.20, -0.65, -0.71, -0.18 (mean -0.35; controls 1 of 18).
For GFDLEEYGIS | VIYADGVRTAYADSVK | GNVAGTFDV, the assay gave 2.35, ND, 1.03, 1.48, 4.04, 1.87 (mean 2.15; controls 0 of 18).
For GFDLNEYGIS | VIYADGKRTAYADDVK | GETAGTFDQ, the assay gave -0.24, -0.45, -0.58, -0.47, -0.61, -0.46 (mean -0.47; controls 0 of 18).
For GFDLNEYGIS | VIYADGSRTAYADSVK | GEVAGTFDV, the assay gave -0.34, -0.01, 1.57, -0.04, -0.55, 0.30 (mean 0.16; controls 0 of 18).
For GFDLNEYGIS | VIYADGMRTFYADDVK | GEVAGTFDL, the assay gave -0.18, -0.35, -0.64, -0.53, -0.36, -0.47 (mean -0.42; controls 1 of 18).
For GFDLNEYGIS | VIYADGMRTAYADSVK | GEVAGTFDA, the assay gave 0.44, 0.16, -0.38, -0.35, -0.07, -0.29 (mean -0.08; controls 0 of 18).
For GFDLNEYGIS | VIYADGRRTAYADSVK | GETAGTFDV, the assay gave -0.44, -0.70, -0.68, -0.60, -0.85, 0.13 (mean -0.52; controls 0 of 18).
For GFDLNEYGIS | VIYADGKRTAYVDSVK | GTNAGTFDV, the assay gave ND, ND, ND, ND, ND, ND (controls 0 of 18).
For GFDLDEYGIS | VIYADGMRTAYTDSVK | GNTAGTFDL, the assay gave -0.53, -0.35, 0.06, -0.66, -0.43, 0.08 (mean -0.30; controls 0 of 18).

For reference, 5 entries of the list once more:

{"CDR-H1": "GFDLDEYGIS", "CDR-H2": "VIYADGQRTYYADSVK", "CDR-H3": "GNVAGTFDV", "log10 Kd (nM) by replicate": "-0.59, -0.58, -0.32, -1.26, -1.47, -0.53", "mean log10 Kd (nM)": "-0.79", "empty controls": "1/18"}
{"CDR-H1": "GFDLDEYGIS", "CDR-H2": "VIYADGKRTAYADDVK", "CDR-H3": "GNVAGTFDQ", "log10 Kd (nM) by replicate": "-0.66, -0.82, -0.76, -0.59, -1.00, -0.69", "mean log10 Kd (nM)": "-0.75", "empty controls": "0/18"}
{"CDR-H1": "GFDLNEYGIS", "CDR-H2": "VIYADGRRTAYANSVK", "CDR-H3": "GETAGTFDV", "log10 Kd (nM) by replicate": "-0.29, -0.86, -0.12, -1.53, -0.95, -0.60", "mean log10 Kd (nM)": "-0.73", "empty controls": "0/18"}
{"CDR-H1": "GFDLDEYGIS", "CDR-H2": "VIYADGKRTAYTDSVK", "CDR-H3": "GQNAGTFDV", "log10 Kd (nM) by replicate": "0.05, -0.33, -0.56, -0.11, -0.59, -0.36", "mean log10 Kd (nM)": "-0.31", "empty controls": "0/18"}
{"CDR-H1": "GFDLNEYGIS", "CDR-H2": "VIYADGKRTAYVDSVK", "CDR-H3": "GTNAGTFDV", "log10 Kd (nM) by replicate": "ND, ND, ND, ND, ND, ND", "mean log10 Kd (nM)": "ND", "empty controls": "0/18"}

The parent sequence was in this pool as ten entries: three were never detected, three once, and four in most replicates, with averages from 0.34 to 2.37. Nonspecific signal, from three strains lacking the peptide, appeared in 1% of pairings of all heavy chain designs, centred on 2.08 (5% of these signals below 0.84); values are not corrected for it. Also given: how often the same scFv was detected with the empty control strains. The authors' rule: three or more of the six replicates give a measured affinity, fewer mean a poor binder. The range of this assay differs from that of the first round, and the authors advise against merging the two.